This note sets out measurements from article PMC3050001 (Science (New York, N.Y.), 2010).

SMILES strings stand for the structures.

In this test the test system is P. berghei. Type of test: in vivo, Plasmodium berghei (mice).

As to `C[C@H]1Cc2c([nH]c3cc(Cl)c(F)cc23)[C@@]2(N1)C(=O)Nc1ccc(Cl)cc12` [NITD609], where the note is “1 × 100 mg/kg oral, cure = no parasite present at day 30, 100 mg/kg”, the “Cure (%)” value was “completely clear P. berghei infection in all treated mice”. For the same compound, for the setting “three daily oral doses of 50 mg/kg”, the Cure entry was “complete cure”.
